{
  "sequences": {"note": "Sequences of proteins named here, by UniProt entry; tags and fusion partners are left off. Residues count along the entry.", "UniProt P08581, 25-1390 limits assumed": "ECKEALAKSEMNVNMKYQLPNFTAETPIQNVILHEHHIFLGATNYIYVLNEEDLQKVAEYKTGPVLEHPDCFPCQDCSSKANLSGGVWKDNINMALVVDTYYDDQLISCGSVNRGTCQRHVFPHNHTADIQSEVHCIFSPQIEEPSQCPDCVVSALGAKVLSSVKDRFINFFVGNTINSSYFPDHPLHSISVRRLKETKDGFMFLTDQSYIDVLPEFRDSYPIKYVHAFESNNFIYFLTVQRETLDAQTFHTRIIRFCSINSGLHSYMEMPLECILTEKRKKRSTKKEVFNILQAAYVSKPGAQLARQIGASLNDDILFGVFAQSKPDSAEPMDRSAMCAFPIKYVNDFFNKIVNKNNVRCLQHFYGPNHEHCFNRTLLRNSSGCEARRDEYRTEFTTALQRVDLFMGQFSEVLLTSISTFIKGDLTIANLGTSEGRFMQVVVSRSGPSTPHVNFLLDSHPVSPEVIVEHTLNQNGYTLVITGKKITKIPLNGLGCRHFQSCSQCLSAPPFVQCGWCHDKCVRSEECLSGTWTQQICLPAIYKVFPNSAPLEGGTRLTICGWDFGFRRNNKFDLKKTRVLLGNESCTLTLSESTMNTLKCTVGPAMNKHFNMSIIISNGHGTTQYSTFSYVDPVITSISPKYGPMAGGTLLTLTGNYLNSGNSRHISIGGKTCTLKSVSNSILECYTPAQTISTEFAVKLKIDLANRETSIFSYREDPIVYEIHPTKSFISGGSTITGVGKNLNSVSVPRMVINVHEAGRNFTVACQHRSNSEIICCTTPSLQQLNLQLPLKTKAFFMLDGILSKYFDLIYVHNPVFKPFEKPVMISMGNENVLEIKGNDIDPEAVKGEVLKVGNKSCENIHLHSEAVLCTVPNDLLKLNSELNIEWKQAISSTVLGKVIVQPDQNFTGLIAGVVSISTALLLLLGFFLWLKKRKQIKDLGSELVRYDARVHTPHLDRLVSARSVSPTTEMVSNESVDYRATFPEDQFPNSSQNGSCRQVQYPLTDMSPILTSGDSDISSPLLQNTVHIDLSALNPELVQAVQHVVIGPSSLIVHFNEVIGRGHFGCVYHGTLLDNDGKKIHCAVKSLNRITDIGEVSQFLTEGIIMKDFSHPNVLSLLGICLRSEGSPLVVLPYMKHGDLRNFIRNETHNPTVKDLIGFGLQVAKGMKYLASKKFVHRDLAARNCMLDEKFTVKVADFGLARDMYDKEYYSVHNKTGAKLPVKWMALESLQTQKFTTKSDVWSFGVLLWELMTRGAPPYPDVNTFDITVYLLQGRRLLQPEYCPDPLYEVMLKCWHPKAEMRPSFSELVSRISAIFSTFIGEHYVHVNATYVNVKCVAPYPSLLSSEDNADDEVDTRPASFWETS", "UniProt P54756, 25-1037 limits assumed": "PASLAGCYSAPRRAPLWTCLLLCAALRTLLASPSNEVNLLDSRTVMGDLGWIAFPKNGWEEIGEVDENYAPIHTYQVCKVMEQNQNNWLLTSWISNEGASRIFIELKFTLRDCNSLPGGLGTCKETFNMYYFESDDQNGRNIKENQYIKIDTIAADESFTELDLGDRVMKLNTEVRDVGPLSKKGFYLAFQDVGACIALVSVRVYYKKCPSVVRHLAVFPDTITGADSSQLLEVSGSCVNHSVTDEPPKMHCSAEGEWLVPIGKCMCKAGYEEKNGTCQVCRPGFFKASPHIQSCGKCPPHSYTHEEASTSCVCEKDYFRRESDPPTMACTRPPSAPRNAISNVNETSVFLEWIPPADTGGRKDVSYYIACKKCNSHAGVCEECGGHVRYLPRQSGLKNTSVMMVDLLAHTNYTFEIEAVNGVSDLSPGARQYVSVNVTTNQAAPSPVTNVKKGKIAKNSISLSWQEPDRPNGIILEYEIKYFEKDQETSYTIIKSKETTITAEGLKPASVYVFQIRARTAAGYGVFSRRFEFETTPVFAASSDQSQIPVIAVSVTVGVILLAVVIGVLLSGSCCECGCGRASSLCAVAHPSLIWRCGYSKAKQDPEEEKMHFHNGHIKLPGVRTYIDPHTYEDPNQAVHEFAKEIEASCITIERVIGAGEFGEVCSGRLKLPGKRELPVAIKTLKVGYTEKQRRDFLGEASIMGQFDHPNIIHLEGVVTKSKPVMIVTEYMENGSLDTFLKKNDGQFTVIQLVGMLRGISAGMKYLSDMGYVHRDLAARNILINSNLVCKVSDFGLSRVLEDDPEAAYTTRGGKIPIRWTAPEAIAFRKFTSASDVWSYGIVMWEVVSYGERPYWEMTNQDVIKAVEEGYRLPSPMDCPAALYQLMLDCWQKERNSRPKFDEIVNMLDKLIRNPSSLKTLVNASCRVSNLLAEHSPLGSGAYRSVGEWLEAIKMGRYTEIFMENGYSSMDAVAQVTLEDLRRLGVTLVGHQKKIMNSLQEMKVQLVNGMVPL", "UniProt Q02763, 23-1124 limits assumed": "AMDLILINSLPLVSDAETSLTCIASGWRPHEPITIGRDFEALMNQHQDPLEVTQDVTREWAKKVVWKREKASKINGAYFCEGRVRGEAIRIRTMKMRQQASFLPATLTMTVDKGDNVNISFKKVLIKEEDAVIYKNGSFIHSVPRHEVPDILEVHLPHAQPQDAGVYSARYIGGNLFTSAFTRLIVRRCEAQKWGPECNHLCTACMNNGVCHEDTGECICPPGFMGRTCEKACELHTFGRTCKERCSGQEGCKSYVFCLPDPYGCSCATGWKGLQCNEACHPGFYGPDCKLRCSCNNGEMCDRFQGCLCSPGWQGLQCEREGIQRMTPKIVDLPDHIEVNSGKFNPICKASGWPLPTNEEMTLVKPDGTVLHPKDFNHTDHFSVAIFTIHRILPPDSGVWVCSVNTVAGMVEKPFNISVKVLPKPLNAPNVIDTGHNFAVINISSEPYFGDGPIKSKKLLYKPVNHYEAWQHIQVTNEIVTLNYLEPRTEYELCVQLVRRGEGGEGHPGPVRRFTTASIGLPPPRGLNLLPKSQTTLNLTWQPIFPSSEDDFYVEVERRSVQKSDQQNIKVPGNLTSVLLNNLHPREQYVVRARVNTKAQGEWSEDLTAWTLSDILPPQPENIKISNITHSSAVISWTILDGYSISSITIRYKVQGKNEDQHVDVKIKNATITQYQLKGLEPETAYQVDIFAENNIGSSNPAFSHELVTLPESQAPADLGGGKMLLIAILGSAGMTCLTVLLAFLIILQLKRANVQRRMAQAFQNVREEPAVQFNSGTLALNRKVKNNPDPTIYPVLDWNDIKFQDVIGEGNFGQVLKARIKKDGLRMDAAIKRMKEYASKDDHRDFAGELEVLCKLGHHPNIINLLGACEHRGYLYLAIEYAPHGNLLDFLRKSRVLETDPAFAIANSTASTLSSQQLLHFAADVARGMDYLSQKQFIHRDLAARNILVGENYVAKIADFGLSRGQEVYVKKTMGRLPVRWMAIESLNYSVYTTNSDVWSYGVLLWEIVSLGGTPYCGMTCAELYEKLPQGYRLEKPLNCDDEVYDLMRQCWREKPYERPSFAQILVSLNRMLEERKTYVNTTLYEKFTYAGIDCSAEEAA", "UniProt Q15375, 28-998 limits assumed": "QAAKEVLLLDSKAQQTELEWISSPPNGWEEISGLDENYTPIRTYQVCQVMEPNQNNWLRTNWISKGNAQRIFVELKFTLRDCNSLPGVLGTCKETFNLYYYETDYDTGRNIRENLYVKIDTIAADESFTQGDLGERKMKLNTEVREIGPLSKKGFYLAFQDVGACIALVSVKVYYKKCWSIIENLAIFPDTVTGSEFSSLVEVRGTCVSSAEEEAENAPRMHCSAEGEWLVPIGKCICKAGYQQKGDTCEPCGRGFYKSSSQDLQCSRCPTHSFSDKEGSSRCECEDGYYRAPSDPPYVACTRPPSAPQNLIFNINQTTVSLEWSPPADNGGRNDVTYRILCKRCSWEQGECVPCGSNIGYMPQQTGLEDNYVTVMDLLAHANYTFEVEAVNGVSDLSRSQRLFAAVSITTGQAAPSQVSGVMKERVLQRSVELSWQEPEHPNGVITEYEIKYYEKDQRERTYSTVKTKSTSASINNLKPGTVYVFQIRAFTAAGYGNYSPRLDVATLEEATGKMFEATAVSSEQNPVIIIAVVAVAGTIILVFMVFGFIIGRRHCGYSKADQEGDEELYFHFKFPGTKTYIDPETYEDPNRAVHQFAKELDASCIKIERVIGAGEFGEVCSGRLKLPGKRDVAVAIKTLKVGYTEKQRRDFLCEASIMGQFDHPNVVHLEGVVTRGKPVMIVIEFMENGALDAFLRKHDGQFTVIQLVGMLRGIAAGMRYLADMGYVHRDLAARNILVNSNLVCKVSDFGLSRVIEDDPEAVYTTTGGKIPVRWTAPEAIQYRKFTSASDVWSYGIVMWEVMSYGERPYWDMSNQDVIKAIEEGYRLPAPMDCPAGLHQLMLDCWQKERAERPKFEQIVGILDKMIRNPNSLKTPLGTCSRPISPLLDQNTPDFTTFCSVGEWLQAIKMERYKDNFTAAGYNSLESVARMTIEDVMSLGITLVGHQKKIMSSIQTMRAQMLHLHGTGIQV"},
  "source": "patent US9062043B2",
  "about": "“Fused tricyclic compounds as serine-threonine protein kinase and PARP modulators” (SENHWA BIOSCIENCES, INC., priority 2006, dated 2015)",
  "test_in_all_cases": "Kinase inhibition, percentage of activity at 0.5 μM, standardized radiometric kinase assays;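 further: each kinase tested separately, with activity read as 33P-labelled substrate protein captured on filters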",
  "assay_type_in_all_cases": "biochemical",
  "key": {"protein kinases [1]": {"biological_target": "protein kinases (Homo sapiens, UniProt O14757)", "conditions": "CHK1(h)"}, "protein kinases [2]": {"biological_target": "protein kinases (Homo sapiens, UniProt O60674)", "conditions": "JAK2(h)"}, "protein kinases [3]": {"biological_target": "protein kinases (Homo sapiens, UniProt P08581)", "conditions": "Met(h)"}, "protein kinases [4]": {"biological_target": "protein kinases (Homo sapiens, UniProt P17252)", "conditions": "PKCα(h)"}, "protein kinases [5]": {"biological_target": "protein kinases (Homo sapiens, UniProt P54756)", "conditions": "EphA5(h)"}, "protein kinases [6]": {"biological_target": "protein kinases (Homo sapiens, UniProt Q02763)", "conditions": "Tie2(h)"}, "protein kinases [7]": {"biological_target": "protein kinases (Homo sapiens, UniProt Q15375)", "conditions": "EphA7(h)"}, "protein kinases [8]": {"biological_target": "protein kinases (Homo sapiens, UniProt Q9H2X6)", "conditions": "HIPK2(h)"}, "protein kinases [9]": {"biological_target": "protein kinases (Homo sapiens, UniProt Q9Y6M4)", "conditions": "CK1γ3(h)"}},
  "data": [
    {"smiles": "C#Cc1cccc(Nc2nc3cc(C(=O)O)ccc3c3cncnc23)c1", "note": "[compound A2]", "values": [
      {"measurement": "% activity at 0.5 μM", "setting": "protein kinases [1]", "result": 99, "unit": "%"},
      {"measurement": "% activity at 0.5 μM", "setting": "protein kinases [2]", "result": 99, "unit": "%"},
      {"measurement": "% activity at 0.5 μM", "setting": "protein kinases [3]", "result": 122, "unit": "%"},
      {"measurement": "% activity at 0.5 μM", "setting": "protein kinases [4]", "result": 99, "unit": "%"},
      {"measurement": "% activity at 0.5 μM", "setting": "protein kinases [5]", "result": 125, "unit": "%"},
      {"measurement": "% activity at 0.5 μM", "setting": "protein kinases [6]", "result": 99, "unit": "%"},
      {"measurement": "% activity at 0.5 μM", "setting": "protein kinases [7]", "result": 99, "unit": "%"},
      {"measurement": "% activity at 0.5 μM", "setting": "protein kinases [8]", "result": 11, "unit": "%"},
      {"measurement": "% activity at 0.5 μM", "setting": "protein kinases [9]", "result": 100, "unit": "%"}
    ]}
  ]
}
